Measured values published in patent publication US9764004B2 (Eli Lilly and Company, priority 2015, dated 2017).
Where two headings read alike, the source gives them in different places.

Amino acid sequences for entries named in this document (tags omitted). Residues count along the entry.
UniProt Q61606, 27-485: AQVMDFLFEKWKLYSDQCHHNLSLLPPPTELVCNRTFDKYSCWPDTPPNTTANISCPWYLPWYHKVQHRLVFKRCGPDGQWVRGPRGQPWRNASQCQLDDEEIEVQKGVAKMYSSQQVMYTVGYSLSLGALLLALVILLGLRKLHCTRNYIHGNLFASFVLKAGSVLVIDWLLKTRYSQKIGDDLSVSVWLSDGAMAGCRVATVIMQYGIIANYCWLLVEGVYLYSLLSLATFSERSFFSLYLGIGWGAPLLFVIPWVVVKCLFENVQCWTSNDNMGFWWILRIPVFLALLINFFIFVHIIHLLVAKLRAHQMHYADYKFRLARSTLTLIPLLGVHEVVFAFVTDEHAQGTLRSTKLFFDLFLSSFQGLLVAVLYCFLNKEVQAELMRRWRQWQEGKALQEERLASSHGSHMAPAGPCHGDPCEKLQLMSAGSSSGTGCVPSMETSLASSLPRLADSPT
UniProt P43220, 24-463: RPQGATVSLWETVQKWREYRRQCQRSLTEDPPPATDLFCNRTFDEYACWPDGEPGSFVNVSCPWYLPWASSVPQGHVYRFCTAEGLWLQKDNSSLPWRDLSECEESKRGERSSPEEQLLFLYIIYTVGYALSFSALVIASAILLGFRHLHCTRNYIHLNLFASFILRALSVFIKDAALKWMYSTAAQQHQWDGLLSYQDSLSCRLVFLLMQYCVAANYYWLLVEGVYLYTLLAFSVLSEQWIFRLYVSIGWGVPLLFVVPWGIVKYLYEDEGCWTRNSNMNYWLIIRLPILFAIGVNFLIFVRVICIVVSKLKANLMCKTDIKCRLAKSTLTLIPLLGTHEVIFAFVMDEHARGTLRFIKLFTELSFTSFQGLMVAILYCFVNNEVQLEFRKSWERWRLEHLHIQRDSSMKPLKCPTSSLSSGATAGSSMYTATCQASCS
UniProt P47871, 26-477: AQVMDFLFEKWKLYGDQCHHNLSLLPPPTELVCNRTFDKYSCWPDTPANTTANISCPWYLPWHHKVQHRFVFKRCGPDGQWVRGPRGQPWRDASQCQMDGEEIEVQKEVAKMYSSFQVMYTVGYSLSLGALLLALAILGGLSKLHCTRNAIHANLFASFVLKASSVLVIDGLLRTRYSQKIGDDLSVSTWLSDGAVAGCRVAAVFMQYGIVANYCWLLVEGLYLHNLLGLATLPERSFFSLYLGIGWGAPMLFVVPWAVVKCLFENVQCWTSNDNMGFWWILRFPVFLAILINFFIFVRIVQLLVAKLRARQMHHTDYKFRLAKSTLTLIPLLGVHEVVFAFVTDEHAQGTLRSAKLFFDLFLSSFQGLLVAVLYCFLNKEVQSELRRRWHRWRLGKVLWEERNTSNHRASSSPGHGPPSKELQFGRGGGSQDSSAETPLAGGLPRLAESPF
UniProt P30082, 27-485: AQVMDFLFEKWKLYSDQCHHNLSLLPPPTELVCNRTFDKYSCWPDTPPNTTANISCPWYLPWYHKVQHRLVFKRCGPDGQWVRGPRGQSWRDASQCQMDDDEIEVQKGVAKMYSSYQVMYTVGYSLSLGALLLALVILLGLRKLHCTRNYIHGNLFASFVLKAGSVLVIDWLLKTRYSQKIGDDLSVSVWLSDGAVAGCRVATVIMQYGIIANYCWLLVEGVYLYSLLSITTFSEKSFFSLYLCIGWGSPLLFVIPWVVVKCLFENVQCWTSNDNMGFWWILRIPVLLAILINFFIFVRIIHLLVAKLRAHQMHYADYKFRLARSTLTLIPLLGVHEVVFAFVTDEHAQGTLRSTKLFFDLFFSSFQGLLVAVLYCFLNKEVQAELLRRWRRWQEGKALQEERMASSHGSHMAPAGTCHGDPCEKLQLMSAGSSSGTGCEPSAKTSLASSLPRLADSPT

Tests used:
[1] = molecular target: T1, mouse glucagon receptor (mGcg-R) (Mus musculus, UniProt Q61606); assay: Radioligand competition binding (SPA), mGcg-R membranes; details: mean ± SEM
T1 construct: expressed in transfected cells; crude plasma membranes

[2] = molecular target: human Glucagon-Like Peptide-1 receptor (hGLP-1R) (Homo sapiens, UniProt P43220); assay: hGLP-1-R functional cAMP assay
[3] = molecular target: T2, human glucagon receptor (hGcg-R) (Homo sapiens, UniProt P47871); assay: hGcg-R functional cAMP assay; type: cell-based; design: expressed in transfected cells; host or cells: 293HEK, plasmid phD, hygromycin selection
[4] = molecular target: T3, hGIP-R (Homo sapiens, UniProt P48546); assay: hGIP-R functional cAMP assay; type: cell-based
T3 construct: expressed in transfected cells; host or cells: CHO-S (Chinese Hamster Ovary, suspension), pcDNA3.1-NeoR, Geneticin selection
T3 sequence (P48546 22-466): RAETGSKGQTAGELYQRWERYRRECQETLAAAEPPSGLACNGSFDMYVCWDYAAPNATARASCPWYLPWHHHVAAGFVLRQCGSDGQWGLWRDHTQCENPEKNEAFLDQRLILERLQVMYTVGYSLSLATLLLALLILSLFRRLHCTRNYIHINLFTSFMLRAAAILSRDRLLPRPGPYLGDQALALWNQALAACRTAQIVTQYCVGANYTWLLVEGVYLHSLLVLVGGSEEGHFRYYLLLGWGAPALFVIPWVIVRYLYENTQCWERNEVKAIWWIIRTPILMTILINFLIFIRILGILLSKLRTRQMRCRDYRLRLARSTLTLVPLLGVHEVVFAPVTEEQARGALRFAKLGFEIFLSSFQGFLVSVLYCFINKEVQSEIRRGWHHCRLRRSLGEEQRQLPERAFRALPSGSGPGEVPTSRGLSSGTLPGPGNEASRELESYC

[5] = molecular target: T4, rat glucagon receptor (rGcg-R) (Rattus norvegicus, UniProt P30082); assay: Radioligand competition binding (SPA), rGcg-R membranes; details: mean ± SEM
T4 construct: expressed in transfected cells; host or cells: 293HEK, transient (48 h), pcDNA3.1-ZeoR; crude plasma membranes

[6] = Pharmacokinetics in Cynomolgus Monkeys; details: cynomolgus monkey, in vivo
Method: Plasma concentrations of compounds are determined by LC/MS methods. Each method measured the intact peptide (peptide plus linked time extension). For each assay, the compound and an analog, used as an internal standard (IS), are extracted from 100% rat or monkey plasma (50 μl) using methanol and 0.1% formic acid. Two distinct layers are formed upon centrifugation with the compound and the IS located in the supernatant. A 275 μl aliquot of the supernatant is transferred to a Thermo Protein Precipitation Plate where a vacuum is applied for collection of the flow through into a 96-well plate.
Samples are dried with heated nitrogen gas to remove the supernatant. A volume of 150 μl of 30% acetonitrile and 5% formic acid is added to the wells to reconstitute the samples. Injected samples (20 μl) are loaded onto a Supelco Analytical Discovery BIO Wide Pore C5-3, 5 cm×0.1 mm, 3 μm column. The column effluent is directed into a Thermo Q-Exactive mass spectrometer for detection and quantitation.
Male Cynomolgus monkeys are administered a single intravenous (50 nmole/kg) or subcutaneous (50 nmole/kg) dose of a test compound in Tris Buffer (pH 8.0) at a volume of 0.25 ml/kg. Blood is collected from each animal at 0.5 (IV only), 6, 12, 24, 48, 72, 96, 120, 168, 192, 240, 336, 480, 576, and 672 hours post-dose. Plasma concentrations of compounds are determined by LC/MS methods generally as described above in the Sprague dawley rat studies.
Mean (n=2) pharmacokinetic parameters are provided below in table 4.

[7] = type: physicochemical; details: pH 8
Method: Chemical stability for Example 1 is determined in different buffers of various pH values. Samples are prepared in H2O to a 5 mg/mL concentration, dialyzed using Slide-A-Lyzer Dialysis cassettes, 2000 MWCO (part number 66203) overnight at 4° C. into the buffer of interest, filtered through a 0.22 μm filter (Millex, SLGV013SL) then diluted to 1 mg/mL in respective buffer. Buffer compositions are 10 mM Tris-HCl in H2O pH 8 (T8), 10 mM Tris-HCl in H2O pH 7 (T7), 10 mM Histidine in H2O pH 7 (H7), or 10 mM Citrate in H2O pH 6 (C6). Each 1 mg/mL sample is transferred to three vials. […] Stability is also assessed by size exclusion HPLC (SEC-HPLC) on an Insulin HMWP, 7.8×300 mm column (part number WAT2015549) with a running buffer of 20 mM Sodium Phosphate, 20% acetonitrile, pH 7.2 running at a flow rate of 0.5 mL/min for 40 min.

[8] = molecular target: T2, human glucagon receptor (hGcg-R); assay: Radioligand competition binding (SPA), hGcg-R membranes; design: expressed in transfected cells; crude plasma membranes; details: mean ± SEM
[9] = male Cynomolgus monkeys, IV 50 nmol/kg, mean n=2
[10] = male Cynomolgus monkeys, SC 50 nmol/kg, mean n=2

CC(C)C[C@H](NC(=O)[C@H](Cc1c[nH]c2ccccc12)NC(=O)[C@H](CCC(=O)O)NC(=O)[C@@H](NC(=O)[C@H](Cc1ccccc1)NC(=O)[C@H](CCC(=O)O)NC(=O)[C@H](CCCCNC(=O)COCCOCCNC(=O)COCCOCCNC(=O)CC[C@H](NC(=O)CC[C@H](NC(=O)CCCCCCCCCCCCCCCCC(=O)O)C(=O)O)C(=O)O)NC(=O)[C@H](C)NC(=O)[C@H](CCCCN)NC(=O)[C@H](CCCCN)NC(=O)C(C)(C)NC(=O)[C@H](CC(=O)O)NC(=O)[C@H](CC(C)C)NC(=O)[C@H](Cc1ccc(O)cc1)NC(=O)[C@H](CCCCN)NC(=O)[C@H](CO)NC(=O)[C@H](Cc1ccc(O)cc1)NC(=O)[C@H](CC(=O)O)NC(=O)[C@H](CO)NC(=O)[C@@H](NC(=O)[C@H](Cc1ccccc1)NC(=O)[C@@H](NC(=O)CNC(=O)[C@H](CCC(N)=O)NC(=O)C(C)(C)NC(=O)[C@@H](N)Cc1ccc(O)cc1)[C@@H](C)O)[C@@H](C)O)C(C)C)C(=O)N[C@@H](CC(C)C)C(=O)N[C@@H](CCC(=O)O)C(=O)N[C@H](C(=O)NCC(=O)N1CCC[C@H]1C(=O)N[C@@H](CO)C(=O)N[C@@H](CO)C(=O)NCC(=O)N[C@@H](C)C(=O)N1CCC[C@H]1C(=O)N1CCC[C@H]1C(=O)N1CCC[C@H]1C(=O)N[C@@H](CO)C(N)=O)[C@@H](C)O [Example 1]
Ki [1]: 1.92 ± 0.71 nM | EC50 ([2]; EC50 GLP-1 Receptor Assay, sample C6.5-4 C.-4 wk, N = 2 ± SD): 41.6 ± 5 nM | EC50 ([2]; EC50 GLP-1 Receptor Assay, sample C6.5-40 C.-4 wk, N = 2 ± SD): 54.6 ± 46.2 nM | EC50 ([2]; EC50 GLP-1 Receptor Assay, sample C6.5MT-4 C.-4 wk, N = 2 ± SD): 55.6 ± 9.2 nM | EC50 ([2]; EC50 GLP-1 Receptor Assay, sample C6.5MT-40 C.-4 wk, N = 2 ± SD): 47.9 ± 5.8 nM | EC50 ([2]; EC50 GLP-1 Receptor Assay, sample T7-4 C.-4 wk, N = 2 ± SD, *N = 1): > 100 nM | EC50 ([2]; EC50 GLP-1 Receptor Assay, sample T7-40 C.-4 wk, N = 2 ± SD, *N = 1): 57.5 nM | EC50 ([2]; EC50 GLP-1 Receptor Assay, sample T7m-4 C.-4 wk, N = 2 ± SD, *N = 1): 43.8 nM | EC50 ([2]; EC50 GLP-1 Receptor Assay, sample T7m-40 C.-4 wk, N = 2 ± SD, *N = 1): 49.7 nM | EC50 ([2]; hGlp-1R EC50, cAMP, geometric mean ± SEM): 73.9 ± 19.6 nM | EC50 ([3]; cAMP, geometric mean ± SEM, read-out: hGcg-R EC50): 0.00436 ± 0.00079 nM | EC50 ([3]; sample C6.5-4 C.-4 wk, N = 2 ± SD, read-out: EC50 Gcg Receptor Assay): 0.0178 ± 0.0068 nM | EC50 ([3]; sample C6.5-40 C.-4 wk, N = 2 ± SD, read-out: EC50 Gcg Receptor Assay): 0.0243 ± 0.0111 nM | EC50 ([3]; sample C6.5MT-4 C.-4 wk, N = 2 ± SD, read-out: EC50 Gcg Receptor Assay): 0.0188 ± 0.0018 nM | EC50 ([3]; sample C6.5MT-40 C.-4 wk, N = 2 ± SD, read-out: EC50 Gcg Receptor Assay): 0.0146 ± 0.005 nM | EC50 ([3]; sample T7-4 C.-4 wk, N = 2 ± SD, read-out: EC50 Gcg Receptor Assay): 0.0203 ± 0.0025 nM | EC50 ([3]; sample T7-40 C.-4 wk, N = 2 ± SD, read-out: EC50 Gcg Receptor Assay): 0.0217 ± 0.0034 nM | EC50 ([3]; sample T7m-4 C.-4 wk, N = 2 ± SD, read-out: EC50 Gcg Receptor Assay): 0.023 ± 0.0003 nM | EC50 ([3]; sample T7m-40 C.-4 wk, N = 2 ± SD, read-out: EC50 Gcg Receptor Assay): 0.0194 ± 0.005 nM | EC50 ([4]; cAMP, geometric mean ± SEM, read-out: hGIP-R EC50): > 500 nM | EC50 ([4]; sample C6.5-4 C.-4 wk, read-out: EC50 GIP Receptor Assay): > 100 nM | EC50 ([4]; sample C6.5-40 C.-4 wk, read-out: EC50 GIP Receptor Assay): > 100 nM | EC50 ([4]; sample C6.5MT-4 C.-4 wk, read-out: EC50 GIP Receptor Assay): > 100 nM | EC50 ([4]; sample C6.5MT-40 C.-4 wk, read-out: EC50 GIP Receptor Assay): > 100 nM | EC50 ([4]; sample T7-4 C.-4 wk, N = 2 ± SD, *N = 1, read-out: EC50 GIP Receptor Assay): > 100 nM | EC50 ([4]; sample T7-40 C.-4 wk, N = 2 ± SD, *N = 1, read-out: EC50 GIP Receptor Assay): > 100 nM | EC50 ([4]; sample T7m-4 C.-4 wk, N = 2 ± SD, *N = 1, read-out: EC50 GIP Receptor Assay): > 100 nM | EC50 ([4]; sample T7m-40 C.-4 wk, N = 2 ± SD, *N = 1, read-out: EC50 GIP Receptor Assay): > 100 nM | Ki [5]: 9.78 ± 0.22 nM | AUC(0-inf) [6, 9]: 37.3 µM·h | half-life [6, 9]: 42 h | AUC(0-inf) [6, 10]: 31.8 µM·h | Tmax [6, 10]: 9 h | half-life [6, 10]: 44 h | CL/F ([6]; male, sc, 50 nmol/kg, read-out: CL or CL/F (converted)): 1.57 mL/h/kg | Sites of degradation by LC-MS [7]: No major sites of degradation are identified | Ki [8]: 2.04 ± 1.02 nM
